Sequences of proteins named here, by UniProt entry; tags and fusion partners are left off.
Guanine nucleotide-binding protein G(i) subunit alpha-3 (Rattus norvegicus), P08753, UniProt P08753, whole entry, looked up: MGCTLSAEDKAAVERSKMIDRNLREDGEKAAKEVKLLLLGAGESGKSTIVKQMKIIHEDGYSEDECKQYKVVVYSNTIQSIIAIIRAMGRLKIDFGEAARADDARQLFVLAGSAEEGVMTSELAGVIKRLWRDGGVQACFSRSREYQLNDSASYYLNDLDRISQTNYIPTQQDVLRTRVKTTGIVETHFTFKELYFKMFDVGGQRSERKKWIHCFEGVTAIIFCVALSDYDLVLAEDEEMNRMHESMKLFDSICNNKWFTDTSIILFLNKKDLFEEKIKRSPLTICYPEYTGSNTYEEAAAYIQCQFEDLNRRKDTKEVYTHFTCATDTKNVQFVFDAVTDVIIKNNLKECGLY

# Bioassay records from PubChem BioAssay.
# Compounds with a hit are over-represented: about 0.43% of the library has one in this group of screens.
# HCMV NEC inh = inhibitors of HCMV UL50-UL53 interaction, biochemical, HTRF; inhibition, % (concentration not given with the values); HCMV UL50-UL53 nuclear egress complex (human cytomegalovirus); normalized percent inhibition; hit rate 0.15% among 190,000; in the data active = inhibition above about 27%, passing the limit was not always enough
# GIV Gai3 FP = inhibitors of GIV peptide binding to Galpha-i3, primary screen, biochemical, fluorescence polarization, FITC-GIV GBA peptide, rat Galphai3. Guanine nucleotide-binding protein G(i) subunit alpha-3 (Rattus norvegicus), P08753. 90 min; stronger effect = lower value; scaled: aluminum fluoride 0%, vehicle 100%. percent of control (FP), % (test concentration not listed). hit rate 0.42% among 210,000. AID 1224905, 2016;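 active = replicate mean at 85% of control or lower, very high polarization wells dropped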;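 note: wells of about 15 µL received 100 nL stock; the first replicate is given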
# GIV-Gai FP conf = inhibitors of GIV peptide binding to Galpha-i3, confirmation, biochemical, fluorescence polarization, FITC-GIV peptide, rat Galphai3. shares compounds with GIV Gai3 FP. active compounds read low. fluorescence polarization, mP at 100 µM. hit rate 38% among 580. AID 1259350, 2017;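 active = inhibition score of 15 or more, meaning 100 minus mean polarization as percent of control over three replicates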;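 also: lower mP means peptide displaced from Galphai3 so more inhibition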
# GIV-Gai AS conf = inhibitors of GIV binding to Galpha-i3, confirmation, orthogonal assay for GIV-Galpha-i inhibitor project, biochemical, AlphaScreen, His-GIV, GST-Galphai3 | shares compounds with GIV Gai3 FP | purified proteins, 90 min; active compounds read low | AlphaScreen counts at 100 µM | hit rate 39% among 580 | AID 1259351, 2017;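 active = inhibition score at or above a set limit, where the score is 100 minus the three-replicate mean percent of control signal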
# Starred values were filed as active, the others as inactive; · = not tested or not shown.
compound	HCMV NEC inh	GIV Gai3 FP	GIV-Gai FP conf	GIV-Gai AS conf
CC(C)NC(=O)Nc1cccc(-c2noc(C3CC(=O)N(c4ccccc4)C3)n2)c1 (configuration not stated)	-16.0	102.1	·	·
COc1ccc(-c2nc(Nc3ccc4c(c3)OCCO4)c3ccccc3n2)cc1OC	33.6*	100.7	·	·
COc1ccc(-c2nc(Nc3ccc(OC)c(Cl)c3)c3ccccc3n2)cc1	1.4	111.3	·	·
O=c1c2ccccc2n2c(-c3ccc(Cl)cc3)nnc2n1CCc1ccccc1	58.6*	100.3	·	·
O=c1c2ccccc2n2c(-c3ccc(F)c(F)c3)nnc2n1CCc1ccccc1	-7.0	95.4	·	·
O=c1/c(=C\c2cccc(Cl)c2)sc2nc(-c3cccs3)nn12	-7.6	·	·	·
O=Cc1c(O)c2ccccc2c2ccccc12	-26.6	43.8*	38.3*	22285
O=c1oc2ccccc2c(O)c1C=Nc1ccccc1	-14.5	107.5	·	·
C=CCn1c(=O)c2ccccc2n2c(SCc3c(C(=O)OC)sc(N)c3C(=O)OC)nnc12	-39.7	·	·	·
CCN1/C(=C\C=C\c2n(CC)c3cc(Cl)c(Cl)cc3[n+]2CCCS(=O)(=O)[O-])N(CCCS(=O)(=O)O)c2cc(Cl)c(Cl)cc21	·	79.2*	74.4	10331*
O=C(Nc1cccc(F)c1F)C1CCN(c2ncccn2)CC1	-14.7	92.8	76.8	36448
Cc1ccc(NC(=O)C2CCN(c3ncccn3)CC2)cc1F	-12.3	101.0	·	·
CC(C)(C)C1(O)C=C(O)C(=O)N1c1cccnc1 (configuration not stated)	1.7	·	·	·
O=S(=O)(c1cccc2nonc12)N1CCC(Cc2ccccc2)CC1	·	92.0	62.7	53128
O=S(=O)(c1cccc2nsnc12)N1CCC(Cc2ccccc2)CC1	·	105.3	·	·
COc1ccc2c(c1)N(C(=O)NC1CCCCC1)C(C)(C)CC2C (configuration not stated)	0.9	103.6	·	·
CS(=O)(=O)Nc1ccc(C2=NN(C(=O)CCCC(=O)O)C(c3ccc(F)cc3)C2)cc1 (configuration not stated)	-38.2	103.3	·	·
COc1cc(/C=C(\C#N)c2nc3ccccc3[nH]2)ccc1OCc1ccccc1F	-47.6	113.3	·	·
N#C/C(=C/c1ccc(Cl)cc1Cl)c1nc2ccccc2c(=O)[nH]1	-22.4	105.8	·	·
CCC(=O)Oc1ccc(/C=C(\C#N)c2nc3ccccc3[nH]2)cc1OC	-85.0	88.7	92.3	29157
COc1cccc(/C=C(\C#N)c2nc3ccc(C)cc3[nH]2)c1	-37.0	69.5*	79.7	34173
COc1cc(/C=C(\C#N)c2nc3ccc(C)cc3[nH]2)ccc1OCc1ccc(C)cc1	-8.5	106.0	·	·
COc1c(Cl)cc(Cl)cc1/C=C(\C#N)c1nc2ccccc2[nH]1	·	46.2*	83.9	32566
CCSc1nn(CC(=O)Nc2ccc(OC)c(Cl)c2)c(N)c1S(=O)(=O)c1ccc(OC)cc1	-20.2	97.5	·	·
O=C(Cn1ncn2c(cc3sccc32)c1=O)NC1CCCc2ccccc21 (configuration not stated)	-17.3	102.8	·	·
CCOc1cccc(/C=C2/SC(=Nc3ccccc3Cl)NC2=O)c1O	-31.1	106.5	·	·
CC1=NN(c2ccc(-c3csnn3)cc2)C(=O)C1	-37.9	99.8	·	·
Cc1cc(C(F)(F)F)c(C#N)c(=O)[nH]1	·	40.2*	66.2	51023
Cc1cc(C(F)(F)F)[nH]c(=O)c1C#N	-9.5	·	·	·
Oc1c(C(c2ccc(Cl)cc2)N2CCOCC2)cc(Cl)c2cccnc12 (configuration not stated)	-23.2	·	·	·

# (list continues)
Compound,HCMV NEC inh,GIV Gai3 FP,GIV-Gai FP conf,GIV-Gai AS conf
CCN(C(=O)Nc1ccc(OC)c(OC)c1)c1nc(-c2ccc(Br)cc2)cs1,2.0,105.0,·,·
COc1ccc2c(c1)C=C(C(=O)NCCc1c[nH]c3ccc(OC)cc13)CO2,-70.8,103.4,·,·
CCc1c(C)c2cc3c(c(C)c2oc1=O)OCN(CCc1ccc(OC)c(OC)c1)C3,-33.1,82.7*,79.3,14061*
COC(=O)Cc1c(C)c2cc3c(c(C)c2oc1=O)OCN(CCc1ccc(OC)cc1)C3,-45.8,98.5,·,·
COc1cc(/C=N\S(=O)(=O)c2cccs2)cc(Br)c1O,-19.0,·,·,·
S=c1nc(C2COc3ccccc3O2)[nH][nH]1 (configuration not stated),-2.2,·,·,·
S=c1[nH]nc(C2COc3ccccc3O2)o1 (configuration not stated),-0.6,83.0*,68.2,3039*

# 3 structures from above, arranged by length of the SMILES, high to low.
Compound,HCMV NEC inh,GIV Gai3 FP,GIV-Gai FP conf,GIV-Gai AS conf
COC(=O)Cc1c(C)c2cc3c(c(C)c2oc1=O)OCN(CCc1ccc(OC)cc1)C3,-45.8,98.5,·,·
CCN(C(=O)Nc1ccc(OC)c(OC)c1)c1nc(-c2ccc(Br)cc2)cs1,2.0,105.0,·,·
S=c1[nH]nc(C2COc3ccccc3O2)o1 (configuration not stated),-0.6,83.0*,68.2,3039*
